The list shows a part of the results, in another mix than the full data. Some of these compounds have results that are not shown, active ones among them. Active and inactive are the calls of the source. Cut-off read from the data, not from the text of the source: active = inhibition above about 9.5%; inactive = the rest.
Target: 1-phosphatidylinositol 4,5-bisphosphate phosphodiesterase gamma-1 (Homo sapiens) (UniProt P19174)
Assay: human PLCG1 activity blockade – biochemical, fluorescence, counter-screen for PLC-beta3 inhibitor project (AID 743258)
Details: purified PLC-gamma1, fluorogenic substrate, at 12.3 µM, stronger effect = higher value

The chains behind the UniProt entries cited, without tags or fusion partners.
UniProt P19174, whole entry: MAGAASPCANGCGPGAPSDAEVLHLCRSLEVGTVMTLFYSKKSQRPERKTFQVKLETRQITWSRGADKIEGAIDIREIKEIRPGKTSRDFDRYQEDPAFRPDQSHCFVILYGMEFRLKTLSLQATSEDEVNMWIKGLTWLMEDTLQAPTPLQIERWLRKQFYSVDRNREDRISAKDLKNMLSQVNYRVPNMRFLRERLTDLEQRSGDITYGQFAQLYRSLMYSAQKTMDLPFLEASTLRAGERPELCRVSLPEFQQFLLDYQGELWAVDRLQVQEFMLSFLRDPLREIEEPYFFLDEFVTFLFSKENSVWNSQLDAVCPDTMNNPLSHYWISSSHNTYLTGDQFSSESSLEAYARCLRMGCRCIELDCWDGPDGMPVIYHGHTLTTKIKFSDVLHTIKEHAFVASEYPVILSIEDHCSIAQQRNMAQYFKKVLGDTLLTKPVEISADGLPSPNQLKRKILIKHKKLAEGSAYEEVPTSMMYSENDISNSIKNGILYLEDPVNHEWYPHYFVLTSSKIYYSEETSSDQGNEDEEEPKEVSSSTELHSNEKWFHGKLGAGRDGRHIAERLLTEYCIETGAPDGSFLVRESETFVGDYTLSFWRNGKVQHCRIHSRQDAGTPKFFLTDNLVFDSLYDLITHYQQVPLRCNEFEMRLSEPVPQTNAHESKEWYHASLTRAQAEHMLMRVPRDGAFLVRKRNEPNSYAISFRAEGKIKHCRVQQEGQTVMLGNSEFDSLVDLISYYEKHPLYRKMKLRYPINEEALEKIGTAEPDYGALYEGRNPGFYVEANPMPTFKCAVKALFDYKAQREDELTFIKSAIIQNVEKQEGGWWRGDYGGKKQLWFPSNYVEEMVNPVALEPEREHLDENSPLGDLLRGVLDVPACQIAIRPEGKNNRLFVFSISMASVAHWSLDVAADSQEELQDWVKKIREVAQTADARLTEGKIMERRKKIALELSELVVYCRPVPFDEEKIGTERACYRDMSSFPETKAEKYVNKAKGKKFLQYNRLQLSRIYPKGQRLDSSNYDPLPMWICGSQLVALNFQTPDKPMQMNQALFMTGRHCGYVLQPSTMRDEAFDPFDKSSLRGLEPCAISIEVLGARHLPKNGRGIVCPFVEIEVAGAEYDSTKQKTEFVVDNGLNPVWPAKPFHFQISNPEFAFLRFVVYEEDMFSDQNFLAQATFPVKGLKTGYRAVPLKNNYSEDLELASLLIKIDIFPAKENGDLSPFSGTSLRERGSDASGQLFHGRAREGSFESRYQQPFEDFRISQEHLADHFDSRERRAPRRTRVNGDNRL

Compound	inhibition
CCN1CCCC(OC(=O)C2(O)c3ccccc3C=Cc3ccccc32)C1 (stereo unspecified)	inactive: -0.43%

Reference: PubChem BioAssay AID743258 (The Scripps Research Institute Molecular Screening Center, 2014)
